The source of these data is patent US20250346604A1, “TRIAZOLOPYRIDAZINE COMPOUNDS USEFUL AS RAC1 INHIBITORS” (Revere Pharmaceuticals, priority 2022, published 2025).

Where two headings read alike, the source gives them in different places.

The target in one data set is Rac1 (Homo sapiens (Human), UniProt P63000). Nature of the data set: Rac Activation AlphaScreen Assay (RacI AS). In general terms: Bead proximity is the source of the signal in Alpha formats.
Data set [1] can be described thus: Mouse Liver Microsome (MLM) Stability Assay. On the procedure: 5. Mouse Liver Microsome (MLM) Stability Assay
Incubation of test compounds with mouse liver microsomes in the presence of NADPH co-factor was used to assay the in vitro mouse liver microsome metabolic clearance rate. In the presence of the co-factor NADPH, which initiates the reaction, mouse liver microsomes were incubated with test compounds at 37° C. at fixed time intervals. After centrifugation, supernatants were measured by LC/M S. The amount of compound at each time interval was compared to the amount of compound present at the 0 minute timepoint and percentage compound remaining values were calculated. MLM intrinsic clearance (Clint) (μL/min/mg protein) is calculated based on compound half-life.

Setting [2] is: Table 3, other compounds of Formula I.
Where [3] appears, read: read-out: Activity, Table 1, Formula I-A.

With `COc1cc(C(=O)Nc2cccc(-c3ccc4nnc(-c5ccc(CO)o5)n4n3)c2)ccc1F`, the IC50 against Rac1 (setting [2]) was less than 1 µM.
Turning to `Cc1ccc(-c2nnc3ccc(-c4cccc(NC(=O)c5ccc(F)c(Br)c5)c4)nn23)o1`, the MLM clearance entry in data set [1] is reported as “below 50 μL/min/mg protein”. Further, at Rac1 (setting [3]), the IC50 was less than 1 µM.
In turn, `O=C(Nc1cccc(-c2ccc3nnc(-c4cncs4)n3n2)c1)c1ccc(F)c(Cl)c1` registered an IC50 on Rac1 (Table 2, Formula I-B) of 1 to 10 µM.
With `CSc1cc(C(=O)Nc2cccc(-c3ccc4nnc(-c5ccc(C)o5)n4n3)c2)ccc1F`, at Rac1 (setting [3]), the IC50 is less than 1 µM.
`Cc1ccc(-c2nnc3ccc(-c4cccc(NC(=O)c5ccc(F)c(CCC(C)C)c5)c4)nn23)o1`: the MLM clearance entry in data set [1] is “below 50 μL/min/mg protein”. The IC50 at Rac1 (setting [3]) is less than 1 µM.
Consider `CCSc1cccc(C(=O)Nc2cccc(-c3ccc4nnc(-c5ccc(C)o5)n4n3)c2)c1`, for which the IC50 on Rac1 (setting [3]) was less than 1 µM.
Consider `Cc1ccc(-c2nnc3ccc(-c4cccc(NC(=O)c5ccc(F)c(C)c5)c4)nn23)o1`, for which, in data set [1], the MLM clearance entry is “below 50 μL/min/mg protein”. For the same compound, the IC50 at Rac1 (setting [3]) was less than 1 µM.
Consider `Cc1ccc(-c2nnc3ccc(-c4cccc(NC(=O)c5cccc(SC(C)(C)C)c5)c4)nn23)o1`, for which the IC50 at Rac1 (setting [3]) was less than 1 µM.
On the same count and under the same terms, the figure for `Cc1ccc(-c2nnc3ccc(-c4cccc(NC(=O)c5ccc(C)c(-c6cnco6)c5)c4)nn23)o1` is less than 1 µM; for `Cc1ccc(-c2nnc3ccc(-c4cccc(NC(=O)c5ccc(F)c(SC(C)C)c5)c4)nn23)o1` it is less than 1 µM.
The compound `O=Cc1ccc(-c2nnc3ccc(-c4cccc(NC(=O)c5ccc(F)cc5)c4)nn23)o1` registered an IC50 on Rac1 (setting [2]) of less than 1 µM.
The compound `O=C(Nc1cccc(-c2ccc3nnc(-c4cncs4)n3n2)c1)c1cccc(Cl)c1` came in with an IC50 at Rac1 (Table 2, Formula I-B) of 1 to 10 µM.
As for `Cc1cccc(C(=O)Nc2cccc(-c3ccc4nnc(-c5ccc(C)o5)n4n3)c2)c1`, the MLM clearance entry in data set [1] is given as “below 50 μL/min/mg protein”. For the same compound, the IC50 at Rac1 (setting [3]) is less than 1 µM.
The corresponding values for `Cc1ccc(-c2nnc3ccc(-c4cccc(NC(=O)c5cccc(Br)c5)c4)nn23)o1` are “below 50 μL/min/mg protein” and less than 1 µM.
